Test results from paper PMC11648681, “Development of machine learning models for the prediction of the skin sensitization potential of cosmetic compounds” (PeerJ, 2024).
Several values for one entry are separate records, joined by “and”; a condition that tells them apart may be missing. Equal values may be shown once.

Tested on: THP-1 cells
Assay: CCK-8 cell viability of THP-1 cells after 48 h compound treatment in HaCaT/THP-1 co-culture
Format: cell-based, human
Details: for Cell viability: THP-1, individual replicate values
Procedure: The co-culture system was set up according to the following described method. In brief, when the HaCaT cells reached 80–90% confluency, they were digested with 0.25% trypsin (Cytiva, Burlington, MA, USA), collected, and seeded into 96-well plates at a density of 10,000 cells per well for 24 h. THP-1 cells were collected, centrifuged, and re-suspended in fresh RPMI-1640 medium supplemented with 10% FBS at 2 × 10^6 cells/mL. Then cells are distributed into HaCaT-seeded 96 wells plate with 80 μL (1.6 × 10^5 cells/well).
The compounds listed in Table 1 were dissolved in DMSO to create stock solutions with a concentration of 500 mg/mL. Eleven concentrations were subsequently prepared using two-fold serial dilutions. These stock solutions were then further diluted 250-fold in RPMI-1640 + 10% FBS medium. Finally, 80 μL of the prepared solutions were added 1:1 to the treated 96-well plates and incubated for 48 h at 37 °C and 5% CO2.
After 48 h of treatment, the treated cells were collected 100 μL cells per well. The supernatant medium was added 10 μL of CCK-8 (Life-iLab, Shanghai, China) solution to each well and incubated the plate in the incubator for 2–4 h. THP-1 cell viability was determined using standard calculation methods.
The cytotoxicity of 15 test compounds listed in Table 1 was assessed using THP-1 cells across a concentration range of 1,000 to 3.9 μg/mL. Cell viability was assessed after 48 h of treatment using the CCK-8 assay.

Compound	Cell viability (62.5 μg/mL)	Cell viability (0.976563 μg/mL)	Cell viability (1.95312 μg/mL)	Cell viability (3.90625 μg/mL)	Cell viability (7.8125 μg/mL)	Cell viability (15.625 μg/mL)	Cell viability (31.25 μg/mL)	Cell viability (125 μg/mL)	Cell viability (250 μg/mL)	Cell viability (500 μg/mL)	Cell viability (1000 μg/mL)	final concentration used (highest concentration that maintained at least 80% cell viability) (THP-1 cells, CCK-8, single (not double) concentration)
CC(C)CCCC(C)CCCC(C)CCCCC(C)CCCC(C)CCCC(C)C (stereo not shown) [squalane, Squalane]	86.3429%											
Isoeugenol	37.6165% and 43.6466%	86.2556% and 92.0075%	67.2105% and 60.8571%	70.594% and 61.9023%	66.1654% and 59.3534%	55.3684% and 59.015%	55.3985% and 58.8722%	20.0376% and 20.4586%	27.2181% and 25.4962%	29.9098% and 23.2105%	22.5338% and 25.6617%	1.95 µg/mL
